Measured values from US20230131808A1, “PEGYLATED INTERFERON TAU AND COMPOSITIONS AND METHODS THEREOF” (priority 2020, published 2023).

Tested on: ZIKV (PRVABC59)
Assay: Anti-Zika virus (ZIKA/PRVABC59) CPE assay in Huh-7 cells
Type: cell-based

IFN-β: IFN beta, type I interferon used as control in the anti-ZIKV CPE assay
Average Activity(%) (0.06 IU/ml): 8.47%
Average Activity(%) (0.32 IU/ml): 9.30%
Average Activity(%) (1.60 IU/ml): 23.79%
Average Activity(%) (8.00 IU/ml): 69.21%
Average Activity(%) (40.00 IU/ml): 90.30%
Average Activity(%) (200.00 IU/ml): 96.36%
EC50 (Huh-7 cells, ZIKA/PRVABC59, CPE): 4.10 IU/ml
